Test results reported in PMC3197488, “Characterization of the χψ subcomplex of Pseudomonas aeruginosa DNA polymerase III” (BMC Molecular Biology, 2011).

T1: E. coli DNA polymerase III χ subunit (E. coli, UniProt P28905 1-147)
T1 construct: DNA polymerase III χ subunit, holC gene amplified from genomic DNA of E. coli strain LK111λ; Two vectors were used for the same protein: pET-15b (NcoI/XhoI, with Ecoψ) and pCDFDuet-1 (NdeI/XhoI, for the chimeric χEcoψPae complex); Primers in Additional file 9; also called Ecoχ; χEco; source: E. coli, co-expressed untagged with Ecoψ (pET-15b) and purified as Ecoχψ (ammonium sulfate, Q-sepharose, …)
T1 sequence (looked up): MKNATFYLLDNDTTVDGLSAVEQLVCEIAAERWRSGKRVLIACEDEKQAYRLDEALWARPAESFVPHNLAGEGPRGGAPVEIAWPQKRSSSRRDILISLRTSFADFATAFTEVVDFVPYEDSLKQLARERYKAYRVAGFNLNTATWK

B1: E. coli χψ complex (complex)
chain 1: T1 sequence (looked up)
chain 2: MTSRRDWQLQQLGITQWSLRRPGALQGEIAIAIPAHVRLVMVANDLPALTDPLVSDVLRALTVSPDQVLQLTPEKIAMLPQGSHCNSWRLGTDEPLSLEGAQVASPALTDLRANPTARAALWQQICTYEHDFFPRND
notes: DNA polymerase III χ subunit (holC), E. coli strain LK111λ; as m4; DNA polymerase III ψ subunit (holD), E. coli strain LK111λ; as m5; Heterodimer, calculated molar mass 31.8 kg/mol; also called Ecoχψ; Ecoχψ heterodimer; source: E. coli, expressed untagged from pET-15b, purified (ammonium sulfate, Q-sepharose, SEC); copies: 1 + 1
B2: E. coli single-stranded DNA-binding protein, wild type (natural protein, UniProt P0AGE0 1-178, looked up)
chain: MASRGVNKVILVGNLGQDPEVRYMPNGGAVANITLATSESWRDKATGEMKEQTEWHRVVLFGKLAEVASEYLRKGSQVYIEGQLRTRKWTDQSGQDRYTTEVVVNVGGTMQMLGGRQGGGAPAGGNIGGGQPQGGWGQPQQPQGGNQFSGGAQSRPQQSAPAAPSNEPPMDFDDDIPF
notes: also called EcoSSB; wild-type EcoSSB
B3: E. coli DNA polymerase III ψ subunit (natural protein, UniProt P28632 1-137, looked up)
chain: B1 chain 2
notes: DNA polymerase III ψ subunit, holD gene amplified from genomic DNA of E. coli strain LK111λ; Primers in Additional file 9; also called Ecoψ; ψEco; source: E. coli, co-expressed untagged with Ecoχ (pET-15b), purified as Ecoχψ (ammonium sulfate, Q-sepharose, SEC)

Legend:
Conditions in all cases: both partners purified
[1] = molecular target: B2; experiment: AUC; sedimentation velocity; χψ titrated to 6 μM SSB in high salt buffer, 50000 rpm, 20°C, 280 nm; free χψ from c(s); model of n independent χψ per SSB tetramer
[2] = molecular target: B2; experiment: AUC; sedimentation velocity; χψ titrated to 0.35 μM cognate SSB saturated with 12.3 μM poly(dT), low salt buffer, 22000 rpm, 20°C, 230 nm; model of n χψ per SSB tetramer
E. coli χψ complex [3] = molecular target: B1; experiment: AUC; sedimentation velocity; χψ titrated to 6 μM SSB in high salt buffer, 50000 rpm, 20°C, 280 nm; free χψ from c(s); model of n independent χψ per SSB tetramer
E. coli χψ complex [4] = molecular target: B1; experiment: AUC; sedimentation velocity; χψ titrated to 0.35 μM cognate SSB saturated with 12.3 μM poly(dT), low salt buffer, 22000 rpm, 20°C, 230 nm; model of n χψ per SSB tetramer
[5] = molecular target: T1, E. coli DNA polymerase III χ subunit; experiment: AUC; sedimentation equilibrium, high salt buffer (0.3 M NaCl, 20 mM KPi pH 7.4, 0.5 mM DTT), 4°C, 9000, 13000 and 18000 rpm; Paeχψ at 5.8 and 23.3 μM; global fit with a single molar mass

In the case of B1, the “stoichiometry N” value [1] is reported as 3.8 χψ per SSB tetramer and the “stoichiometry N” value [2] is reported as 3 χψ per SSB tetramer.

With B2 the Ka (E. coli χψ complex [3]) was 180000 M⁻¹ and the Ka (E. coli χψ complex [4]) was 6e+06 M⁻¹.

B3: binds [5].
